The text below walks through data of publication PMC3791872, “Ciprofloxacin is an inhibitor of the Mcm2-7 replicative helicase” (Bioscience Reports, 2013).

Chains of the proteins cited; added tags and fusions are not shown. Lines headed by an entry give the natural chain unless they say otherwise; changes in a name come on top.
UniProt P24279: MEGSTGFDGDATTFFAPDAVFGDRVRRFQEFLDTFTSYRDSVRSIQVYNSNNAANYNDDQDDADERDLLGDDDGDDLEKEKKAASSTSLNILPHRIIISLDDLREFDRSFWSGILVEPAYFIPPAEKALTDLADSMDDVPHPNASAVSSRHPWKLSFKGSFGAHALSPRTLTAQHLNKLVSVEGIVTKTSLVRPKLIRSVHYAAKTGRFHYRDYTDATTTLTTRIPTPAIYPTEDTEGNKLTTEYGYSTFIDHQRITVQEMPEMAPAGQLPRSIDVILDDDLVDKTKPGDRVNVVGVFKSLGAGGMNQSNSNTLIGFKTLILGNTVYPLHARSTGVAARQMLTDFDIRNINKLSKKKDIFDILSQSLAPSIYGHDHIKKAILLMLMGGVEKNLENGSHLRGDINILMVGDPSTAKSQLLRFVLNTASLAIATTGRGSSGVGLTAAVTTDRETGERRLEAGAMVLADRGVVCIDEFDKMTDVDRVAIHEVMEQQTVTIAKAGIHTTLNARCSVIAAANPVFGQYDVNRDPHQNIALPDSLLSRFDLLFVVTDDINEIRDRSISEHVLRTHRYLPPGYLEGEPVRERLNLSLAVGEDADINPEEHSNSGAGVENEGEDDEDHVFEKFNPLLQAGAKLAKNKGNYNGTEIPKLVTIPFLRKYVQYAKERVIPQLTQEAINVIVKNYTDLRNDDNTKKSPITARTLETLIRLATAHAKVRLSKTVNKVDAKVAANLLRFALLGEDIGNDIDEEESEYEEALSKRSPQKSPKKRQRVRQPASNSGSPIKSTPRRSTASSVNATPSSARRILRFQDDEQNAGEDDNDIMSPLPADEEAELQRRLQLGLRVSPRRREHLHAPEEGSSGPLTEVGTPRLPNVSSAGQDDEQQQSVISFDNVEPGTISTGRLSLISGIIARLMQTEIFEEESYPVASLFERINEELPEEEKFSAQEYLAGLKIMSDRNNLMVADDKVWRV
UniProt P29469: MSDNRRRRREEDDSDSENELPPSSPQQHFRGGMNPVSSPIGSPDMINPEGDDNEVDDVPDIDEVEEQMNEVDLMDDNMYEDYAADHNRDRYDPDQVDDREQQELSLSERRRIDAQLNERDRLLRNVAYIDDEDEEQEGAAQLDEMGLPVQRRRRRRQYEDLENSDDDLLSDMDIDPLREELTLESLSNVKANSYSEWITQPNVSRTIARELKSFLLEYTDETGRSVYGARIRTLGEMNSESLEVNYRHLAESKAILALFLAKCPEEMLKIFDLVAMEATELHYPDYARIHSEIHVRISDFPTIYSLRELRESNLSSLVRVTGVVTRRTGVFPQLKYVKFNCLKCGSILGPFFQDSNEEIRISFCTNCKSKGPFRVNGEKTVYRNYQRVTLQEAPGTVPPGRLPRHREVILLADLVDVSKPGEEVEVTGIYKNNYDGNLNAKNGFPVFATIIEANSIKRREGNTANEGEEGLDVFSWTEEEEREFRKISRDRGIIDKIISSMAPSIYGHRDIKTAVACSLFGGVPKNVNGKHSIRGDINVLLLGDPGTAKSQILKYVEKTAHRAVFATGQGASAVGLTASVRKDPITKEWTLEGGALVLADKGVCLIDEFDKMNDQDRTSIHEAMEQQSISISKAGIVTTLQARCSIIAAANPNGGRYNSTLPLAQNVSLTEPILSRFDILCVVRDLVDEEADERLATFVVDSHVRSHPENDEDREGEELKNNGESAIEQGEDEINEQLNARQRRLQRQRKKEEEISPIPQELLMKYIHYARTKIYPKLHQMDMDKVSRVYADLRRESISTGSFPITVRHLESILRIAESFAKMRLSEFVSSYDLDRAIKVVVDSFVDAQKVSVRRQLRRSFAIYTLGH
UniProt P29496: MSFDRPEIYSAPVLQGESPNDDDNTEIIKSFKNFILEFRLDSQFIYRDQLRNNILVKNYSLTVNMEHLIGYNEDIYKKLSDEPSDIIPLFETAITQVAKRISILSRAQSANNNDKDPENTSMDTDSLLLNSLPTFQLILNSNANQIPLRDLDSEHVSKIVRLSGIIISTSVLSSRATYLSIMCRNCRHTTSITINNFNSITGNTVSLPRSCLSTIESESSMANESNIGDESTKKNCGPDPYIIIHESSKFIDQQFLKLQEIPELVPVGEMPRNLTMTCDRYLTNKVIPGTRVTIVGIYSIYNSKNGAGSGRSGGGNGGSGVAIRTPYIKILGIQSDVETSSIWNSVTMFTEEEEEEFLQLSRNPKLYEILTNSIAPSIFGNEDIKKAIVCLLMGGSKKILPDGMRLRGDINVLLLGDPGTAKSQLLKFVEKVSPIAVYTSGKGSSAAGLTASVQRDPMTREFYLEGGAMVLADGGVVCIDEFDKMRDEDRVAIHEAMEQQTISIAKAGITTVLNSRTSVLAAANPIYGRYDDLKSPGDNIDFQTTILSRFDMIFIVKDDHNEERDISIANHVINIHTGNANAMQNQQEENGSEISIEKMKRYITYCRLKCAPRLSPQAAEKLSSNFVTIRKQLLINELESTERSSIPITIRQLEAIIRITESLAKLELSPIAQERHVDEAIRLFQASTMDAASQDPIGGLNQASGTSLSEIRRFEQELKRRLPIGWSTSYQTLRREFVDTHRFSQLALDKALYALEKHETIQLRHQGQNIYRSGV
UniProt P30665: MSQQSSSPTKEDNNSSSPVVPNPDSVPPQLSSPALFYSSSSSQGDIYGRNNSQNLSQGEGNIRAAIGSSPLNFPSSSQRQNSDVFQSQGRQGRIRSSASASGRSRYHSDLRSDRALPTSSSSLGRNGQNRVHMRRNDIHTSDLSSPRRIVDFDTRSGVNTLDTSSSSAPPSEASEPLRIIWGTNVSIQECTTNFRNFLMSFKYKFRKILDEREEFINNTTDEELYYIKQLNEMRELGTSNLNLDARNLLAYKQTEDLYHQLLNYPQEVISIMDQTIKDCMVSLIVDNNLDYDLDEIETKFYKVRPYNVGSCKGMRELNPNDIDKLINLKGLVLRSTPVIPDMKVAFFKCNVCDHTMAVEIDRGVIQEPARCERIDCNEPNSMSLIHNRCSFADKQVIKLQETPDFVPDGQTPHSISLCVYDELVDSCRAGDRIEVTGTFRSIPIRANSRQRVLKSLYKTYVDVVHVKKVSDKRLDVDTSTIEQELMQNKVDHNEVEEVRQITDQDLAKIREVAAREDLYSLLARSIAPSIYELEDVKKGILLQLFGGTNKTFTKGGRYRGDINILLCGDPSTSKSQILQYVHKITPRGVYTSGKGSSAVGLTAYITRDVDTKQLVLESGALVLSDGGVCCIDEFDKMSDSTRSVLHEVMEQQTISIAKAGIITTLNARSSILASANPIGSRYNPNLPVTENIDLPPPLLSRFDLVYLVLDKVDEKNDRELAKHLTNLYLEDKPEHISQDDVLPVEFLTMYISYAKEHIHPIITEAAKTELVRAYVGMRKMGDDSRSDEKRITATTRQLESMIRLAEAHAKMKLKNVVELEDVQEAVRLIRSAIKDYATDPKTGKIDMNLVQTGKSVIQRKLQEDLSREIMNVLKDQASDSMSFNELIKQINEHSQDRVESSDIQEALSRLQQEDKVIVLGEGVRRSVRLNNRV
UniProt P38132: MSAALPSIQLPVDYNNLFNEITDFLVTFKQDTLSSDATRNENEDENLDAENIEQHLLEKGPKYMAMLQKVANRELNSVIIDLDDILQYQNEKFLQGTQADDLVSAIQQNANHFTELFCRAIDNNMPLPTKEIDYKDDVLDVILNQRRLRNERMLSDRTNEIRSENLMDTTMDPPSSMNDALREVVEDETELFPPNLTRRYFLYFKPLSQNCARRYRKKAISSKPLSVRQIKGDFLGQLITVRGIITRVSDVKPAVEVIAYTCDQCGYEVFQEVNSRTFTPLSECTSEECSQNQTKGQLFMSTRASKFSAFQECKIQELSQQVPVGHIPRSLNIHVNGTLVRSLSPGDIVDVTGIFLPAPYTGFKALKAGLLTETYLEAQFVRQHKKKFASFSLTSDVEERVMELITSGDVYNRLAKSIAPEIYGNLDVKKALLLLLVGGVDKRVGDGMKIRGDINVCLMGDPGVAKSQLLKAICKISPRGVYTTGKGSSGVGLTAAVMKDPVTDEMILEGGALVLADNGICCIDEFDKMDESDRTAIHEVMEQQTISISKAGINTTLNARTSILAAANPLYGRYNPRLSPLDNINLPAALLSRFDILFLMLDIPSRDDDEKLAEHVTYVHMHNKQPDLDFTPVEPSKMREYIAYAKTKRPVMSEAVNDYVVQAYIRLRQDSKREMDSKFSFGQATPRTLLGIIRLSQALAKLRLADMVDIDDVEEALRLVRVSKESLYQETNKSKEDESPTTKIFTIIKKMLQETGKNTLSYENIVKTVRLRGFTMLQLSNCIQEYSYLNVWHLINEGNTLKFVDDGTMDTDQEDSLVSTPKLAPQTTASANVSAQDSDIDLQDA
UniProt P53091: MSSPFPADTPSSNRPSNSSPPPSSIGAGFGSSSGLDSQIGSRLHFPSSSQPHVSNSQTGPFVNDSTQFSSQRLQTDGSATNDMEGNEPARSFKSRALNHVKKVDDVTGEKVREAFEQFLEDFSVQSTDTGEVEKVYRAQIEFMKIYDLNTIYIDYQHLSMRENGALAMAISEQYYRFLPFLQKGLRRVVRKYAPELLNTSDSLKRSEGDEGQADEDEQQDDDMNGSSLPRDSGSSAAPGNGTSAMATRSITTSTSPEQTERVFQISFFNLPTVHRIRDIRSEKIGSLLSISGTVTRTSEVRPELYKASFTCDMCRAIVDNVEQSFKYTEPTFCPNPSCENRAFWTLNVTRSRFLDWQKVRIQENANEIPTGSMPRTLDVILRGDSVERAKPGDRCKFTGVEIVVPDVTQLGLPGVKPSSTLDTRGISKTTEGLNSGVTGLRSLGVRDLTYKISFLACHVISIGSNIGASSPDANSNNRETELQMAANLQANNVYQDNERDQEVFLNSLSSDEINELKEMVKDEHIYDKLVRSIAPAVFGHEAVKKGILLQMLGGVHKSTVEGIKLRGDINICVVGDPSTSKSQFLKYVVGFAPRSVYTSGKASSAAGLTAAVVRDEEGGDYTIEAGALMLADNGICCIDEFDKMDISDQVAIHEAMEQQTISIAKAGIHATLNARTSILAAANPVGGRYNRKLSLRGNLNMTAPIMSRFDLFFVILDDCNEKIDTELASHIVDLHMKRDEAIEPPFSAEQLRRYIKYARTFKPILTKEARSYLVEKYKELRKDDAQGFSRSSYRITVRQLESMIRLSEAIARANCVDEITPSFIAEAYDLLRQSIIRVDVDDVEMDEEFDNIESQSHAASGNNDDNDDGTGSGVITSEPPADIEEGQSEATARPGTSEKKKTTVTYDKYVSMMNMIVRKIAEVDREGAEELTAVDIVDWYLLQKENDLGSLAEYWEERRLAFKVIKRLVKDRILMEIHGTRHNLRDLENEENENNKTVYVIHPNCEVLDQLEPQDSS

For one assay, the target named is Mcm2-7 (UniProt P24279+P29469+P29496+P30665+P38132+P53091). Briefly: ssDNA double filter-binding assay, Mcm2-7. Conditions: 1 mM compound, 150 nM helicase. Also noted: species or system Saccharomyces cerevisiae.
Another assay deals with Mcm467 (Saccharomyces cerevisiae, UniProt P30665+P38132+P53091). Briefly: ssDNA double filter-binding assay, Mcm467. The conditions noted are these: 1 mM compound, 150 nM helicase.

Turning to `O=[N+]([O-])c1ccc(Cl)c2nonc12`, the “effect on ssDNA binding of Mcm2-7” value on Mcm2-7 is recorded as “inhibit”. The “effect on ssDNA binding of Mcm467” value at Mcm467 is reported as “inhibit”.
